# Target: human complement protein C5 (human) (UniProt P01031)
# Assay: cell-based or functional assay
substance,measurement,value
Crovalimab (original name SKY59) (antibody),"50% Inhibitory Dose, classical pathway haemolysis assay",212 ng/mL
same,"Haemolytic Units (HU), classical pathway haemolysis assay",49.9 HU

# — US20220380444A1
